Screens (PubChem)
Anesthetic bind: candidate novel general anesthetic via apoferritin binding; apoferritin/1-aminoanthracene competitive binding, fluorescence; P02791; actives 0.074% (n = 350,000); Potency, µM (top dose mostly 77.5 µM), usual class: inhibitors; note: nearly all actives have a fitted effect of over 20% in size
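In PBS, apoferritin at 10 uM is loaded with 1-AMA from a 50% saturated solution. After 10 min of compound exposure at ambient temperature, reduced 535 nm fluorescence indicates probe displacement.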
BRCA1 expr up: activators of BRCA1 expression; MCF7-BRCA1-FFLuc reporter, luminescence, 48 h; response scale: scaled: vehicle 0%, 10 µM genistein 100%; Potency, µM (doses to about 46.1 µM), usual class: activators; actives 1.1% (n = 380,000); note: nearly all actives have a fitted effect of over 80% in size
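Using MCF7 cells harboring a BRCA1 firefly luciferase reporter, plated 2 h before compound pinning, the screen measured luminescence after 48 h incubation. Responses were normalized to DMSO and 10 microM genistein, then fitted for concentration-effect.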
p53 reactivation: mutant p53 re-activation in reporter cells; H1299 p53-A138V BP100-luciferase reporter, luminescence, 24 h; Potency, µM (series often up to 92.2 µM), usual class: activators; actives 0.063% (n = 320,000); AID 504706; note: nearly all actives have a fitted effect of over 45% in size
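H1299 (p53-null), stable ts p53-A138V + BP100-Luc; 1000 cells/well, Opti-MEM/10% FBS; cpd 4 pt, 1:5; 24 h, 37 deg C, 5% CO2; detection reagent 10 min RT; luminescence.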
miR-21 reporter: raises the signal of a miR-21 reporter. HeLa miR-21 FLuc reporter, luciferase, 48 h. 340,000 tested, under 10 active. Potency, µM (highest dose often 38.3 µM); active = well fitted rising curve with a large enough effect; inconclusive = small, poorly fitted or top-dose-only effect; inactive = no such curve, though single readings can be large or run the other way;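 note: miR-21 action dims this reporter so a rising signal means less miR-21 action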
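Using DMEM plus 10% FBS, HeLa miR-21-FLuc cells are incubated with test compounds (final up to about 40uM) for 48 hours; firefly luciferase signal is then imaged following reagent-mediated lysis.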
Large screens that a line does not name were inactive. Compounds with a hit are over-represented: about 1.1% of the library has one in this group of screens. Unless noted, calls come from the whole dose curve; as a rule, active = well fitted curve in the direction sought with a large enough effect; inconclusive = small, poorly fitted or top-dose-only effect, or another doubt; inactive = no such curve, though single readings can be large; an effect the other way counts as inactive or inconclusive.

COc1ccc(-c2nnn(Cc3ccccc3)n2)cc1	BRCA1 expr up 10µM, p53 reactivation inconclusive
Nc1ccc(-c2nnn(Cc3ccccc3)n2)cc1	none (no result: Anesthetic bind, p53 reactivation, miR-21 reporter)
COc1ccc(-c2ccc(-c3nnn(CC(=O)N4CCOCC4)n3)cc2)cc1	BRCA1 expr up 1.41µM (no result: p53 reactivation)
CSc1ccc(-c2nnn(Cc3ccc(C)cc3)n2)cc1	BRCA1 expr up 10µM, p53 reactivation inconclusive
COC(=O)[C@@]1(C)C[C@@H]1[C@@H](NC(=O)[C@@]1(C)C[C@@H]1[C@@H](NC(=O)[C@@]1(C)C[C@@H]1[C@@H](NC(=O)[C@@]1(C)C[C@@H]1[C@@H](NC(=O)OCc1ccccc1)c1ccccc1)c1ccccc1)c1ccccc1)c1ccccc1	none (no result: BRCA1 expr up, p53 reactivation, miR-21 reporter)
Cc1ccccc1CN1CCC(n2nccc2NC(=O)CCOc2ccccc2)CC1	none
CC(=O)Nc1nonc1-c1nnc(SCc2ccc(Cl)cc2)n1C	none (no result: BRCA1 expr up, p53 reactivation)
Cc1ccc(C(=O)O/N=C2\CCCc3ccccc32)cc1	none
O=C(N/N=C1\CCc2ccccc21)c1ccccc1O	none (no result: p53 reactivation)
O=C(N/N=C1\CCCCc2ccccc21)c1ccccn1	Anesthetic bind inconclusive, BRCA1 expr up 12.6µM
O=C(N/N=C1\CCCc2ccccc21)c1ccccc1Cl	BRCA1 expr up 10µM
O=C(O)c1ccc(N/N=C2/CCCc3ccccc32)cc1	BRCA1 expr up 7.08µM
CCc1cccc(-n2nnc(-c3nc(-c4ccccc4Cl)no3)c2N)c1	Anesthetic bind inconclusive (no result: BRCA1 expr up, p53 reactivation)
O=C1OC(c2ccccc2)=C/C1=C\N1CCOCC1	BRCA1 expr up inconclusive
O=C1OC(c2ccccc2)=C/C1=C/N1CCOCC1	BRCA1 expr up 12.6µM, p53 reactivation inconclusive
CCc1ccc(-c2nn(CC(=O)NC3CCCC3)c3c2cnc2ccc(F)cc23)cc1	none (no result: BRCA1 expr up, p53 reactivation)
CC(NC(=O)CCc1nnc(Cc2cccc(C(F)(F)F)c2)o1)C1CC1 (stereo unspecified)	none
CC(C)CN(C)C(=O)CCc1nnc(Cc2cccc(C(F)(F)F)c2)o1	BRCA1 expr up 10µM, p53 reactivation inconclusive
CCn1c(=O)sc2cc(NS(=O)(=O)c3ccc(F)c(C)c3)ccc21	none (no result: BRCA1 expr up, p53 reactivation)
CCOc1ccc(CNCc2cccnc2)cc1	none
c1ccc(COc2ccc(CNCc3cccnc3)cc2)cc1	Anesthetic bind inconclusive, BRCA1 expr up 10µM
COc1ccc(OC)c(CCNc2nccn(-c3ccc(C)c(C)c3)c2=O)c1	none (no result: p53 reactivation)
CCS(=O)(=O)N1Cc2ccccc2CC1C(=O)Nc1cccc(C)c1 (stereo unspecified)	Anesthetic bind inconclusive, BRCA1 expr up 5.01µM
CCN(CC)c1ccc(CN(C(=O)c2cc(=O)c3ccccc3o2)C2CCS(=O)(=O)C2)cc1 (stereo unspecified)	none (no result: BRCA1 expr up, p53 reactivation)
COc1ccc(C2OC3=C(Nc4cc(C)c(C)cc4N3)C2=O)cc1 (stereo unspecified)	BRCA1 expr up 2.82µM, p53 reactivation inconclusive
CC1CCCN(Cc2nc3c(c(=O)n(C)c(=O)n3C)n2Cc2ccc(Cl)cc2Cl)C1 (stereo unspecified)	none (no result: BRCA1 expr up, p53 reactivation)
C=CCN(CC=C)S(=O)(=O)c1ccc(NC(=S)NC(=O)c2ccc(-c3ccccc3)cc2)cc1	Anesthetic bind inconclusive
C=CCN(CC=C)S(=O)(=O)c1ccc(NC(=S)NC(=O)c2ccco2)cc1	Anesthetic bind 17.8µM
O=C(Nc1ccc2c(c1)CCC2)c1cnn2c1NC(=C1CC1)C=C2C(F)F	none (no result: Anesthetic bind, p53 reactivation, miR-21 reporter)
Cc1ccccc1C(=O)Nc1cccc(-c2ccc(N3CCOCC3)nn2)c1	BRCA1 expr up 14.1µM (no result: Anesthetic bind, miR-21 reporter)
O=C(COc1ccc(Cl)cc1Cl)Nc1cccc(-c2ccc(N3CCOCC3)nn2)c1	BRCA1 expr up 1.41µM (no result: Anesthetic bind, miR-21 reporter)
O=C(COc1ccc(Cl)cc1Cl)Nc1ccc(-c2ccc(N3CCOCC3)nn2)cc1	none (no result: Anesthetic bind, miR-21 reporter)
CC/C(C)=N\Nc1nc(-c2cc3cc(OC)ccc3oc2=O)cs1	none
Cc1ccc(OCCn2c(=O)sc3ccccc32)cc1	BRCA1 expr up 5.62µM, p53 reactivation inconclusive
C/C(=N\Nc1ncc(Cl)cc1Cl)c1ccc2c(c1)OCO2	BRCA1 expr up 5.62µM
C/C(=N\Nc1ncc(Cl)cc1Cl)c1ccc(OC(F)F)cc1	p53 reactivation inconclusive
C/C(=N\NC(=O)c1ccc2c(c1)OCO2)c1ccc2c(c1)OCO2	BRCA1 expr up 7.94µM, p53 reactivation inconclusive
C/C(=N\NC(=O)c1cccs1)c1ccc2c(c1)OCO2	BRCA1 expr up 8.91µM
COc1ccccc1-c1nc(S(=O)(=O)c2ccccc2)c(N2CCC(C)CC2)o1	none (no result: BRCA1 expr up, p53 reactivation)
COc1ccc(-c2csc(C(C)(O)c3ccc(F)c(F)c3)n2)cc1OC (stereo unspecified)	none (no result: Anesthetic bind, p53 reactivation, miR-21 reporter)
Cc1cc(=O)[nH]c2n[nH]c(-c3ccccc3)c12	BRCA1 expr up 11.2µM, p53 reactivation inconclusive
Cn1nc(C(=O)Nc2nc3ccccc3[nH]2)ccc1=O	BRCA1 expr up 7.94µM
COc1ccc(C(=O)Nc2nc3ccccc3[nH]2)cc1	miR-21 reporter inconclusive
O=C(CSc1nc2ccccc2[nH]1)Nc1ccccc1F	none
O=C(COc1ccccc1)Nc1nc2ccccc2[nH]1	BRCA1 expr up 12.6µM
O=C(Nc1nc2ccccc2[nH]1)Nc1ccccc1F	BRCA1 expr up inconclusive, p53 reactivation 11.2µM
Cc1ccc(NS(=O)(=O)c2cccc(C(=O)NCCCN3CCCC3=O)c2)cc1	none (no result: Anesthetic bind, miR-21 reporter)
CCOC(=O)c1cnn(-c2ccc(C)cc2)c1N	BRCA1 expr up 11.2µM
CCOC(=O)c1ccc(-n2ncc(C(=O)OCC)c2N)cc1	none
Cc1cc(C(=O)COC(=O)Cc2c(F)cccc2Cl)c(C)n1C	BRCA1 expr up 5.01µM (no result: Anesthetic bind, p53 reactivation, miR-21 reporter)
CC(C)(C)c1ccc(OCC(=O)N2CCCCCC2)c(Br)c1	Anesthetic bind inconclusive
Cc1ccc(OCC(=O)N2CCCCC2)c(Br)c1	BRCA1 expr up 11.2µM, p53 reactivation inconclusive
Cc1c(C(=O)NC2CC2)oc2ccccc12	none (no result: Anesthetic bind, miR-21 reporter)
Cc1c(C(=O)OCC(=O)N2CCCC(C)C2)oc2ccccc12 (stereo unspecified)	BRCA1 expr up 10µM (no result: Anesthetic bind, miR-21 reporter)
Cc1c(C(=O)NC2CCC(C)CC2)oc2ccccc12 (stereo unspecified)	BRCA1 expr up 5.01µM, p53 reactivation inconclusive
O=C(CSc1nc2ccccc2c(=O)n1NC(=O)c1ccccc1)c1ccccc1	Anesthetic bind inconclusive, p53 reactivation inconclusive
O=C(CSc1nc2ccccc2c(=O)n1NC(=O)c1ccccc1)c1ccc(Cl)cc1	Anesthetic bind inconclusive, BRCA1 expr up 14.1µM
CCOc1ccc(CC(=O)Nc2c(C(=O)c3ccc(F)cc3)oc3ccccc23)cc1OCC	none (no result: p53 reactivation)
Cc1nn(CCOc2ccccc2)c(=O)n1-c1cccc(F)c1	none
Cc1nn(CCOc2ccccc2)c(=O)n1-c1ccc(F)cc1	BRCA1 expr up 12.6µM
O=C(CSc1ccccc1Cl)c1ccco1	Anesthetic bind 25.1µM
Cc1ccc(NC(=O)CSc2nc(-c3ccccc3Cl)nc3cc(=O)[nH]n23)c(C)c1	none (no result: p53 reactivation)
Cc1ccccc1NC(=O)c1nc(S(=O)(=O)Cc2ccccc2F)ncc1Cl	none (no result: Anesthetic bind, p53 reactivation, miR-21 reporter)
CC(CNC(=O)CC[C@H]1O[C@@H](n2cnc3c(NC(=O)c4ccccc4)ncnc32)[C@H](O)[C@@H]1O)c1ccccc1 (stereo partly specified)	none (no result: Anesthetic bind, p53 reactivation, miR-21 reporter)
c1csc(-c2noc(COc3ccc4c(c3)CCCC4)n2)c1	BRCA1 expr up 3.98µM, p53 reactivation inconclusive
